Assay results taken from ChEMBL document CHEMBL1275402, “Virtual screening to identify novel antagonists for the G protein-coupled NK3 receptor” (J Med Chem, 2010).

Protein sequences, listed by entry. Tags and fused reporters are not part of them.
UniProt P29371, whole entry: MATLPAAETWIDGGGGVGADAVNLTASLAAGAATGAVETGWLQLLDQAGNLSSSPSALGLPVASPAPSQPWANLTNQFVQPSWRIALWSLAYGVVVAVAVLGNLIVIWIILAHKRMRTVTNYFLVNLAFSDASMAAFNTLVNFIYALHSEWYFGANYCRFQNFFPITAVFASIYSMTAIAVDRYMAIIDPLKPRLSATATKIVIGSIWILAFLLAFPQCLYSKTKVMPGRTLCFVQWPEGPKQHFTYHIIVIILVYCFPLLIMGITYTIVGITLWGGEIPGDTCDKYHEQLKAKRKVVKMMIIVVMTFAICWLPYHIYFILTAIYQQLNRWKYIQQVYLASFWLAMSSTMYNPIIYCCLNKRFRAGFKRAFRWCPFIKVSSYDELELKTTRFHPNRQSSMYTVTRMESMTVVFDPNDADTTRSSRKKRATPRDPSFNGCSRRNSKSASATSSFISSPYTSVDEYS

Biological target: Neuromedin-K receptor (Homo sapiens, UniProt P29371)
Test: Antagonist activity against human NK3 receptor expressed in HEK293 cells assessed as inhibition of increase of intracellular calcium level by fluorescent plate-reader analysis
Assay type: functional, cell-based

`CC[C@H](NC(=O)c1c(O)c(-c2ccccc2)nc2ccccc12)c1ccccc1` [TALNETANT] was tested, and the IC50 was 6.1 nM.
